Measurements from US20110136776A1, “Copper(1)Chloride Complex of Nicotinic Acid and Pharmaceutical Compositions Containing the Same” (priority 2008, published 2011).

Assays:
[1] = when well dried and protected from light

[CuCl (Nicotinic acid)2 H20]complex [The complex]
Stability [1]: sufficiently stable | Solubility in DMF and DMSO (DMF and DMSO): Soluble | Solubility in non polar solvents (non polar solvents, e.g. benzene, carbon tetrachloride): insoluble | Solubility in polar solvents (polar solvents: water, methanol, ethanol, acetone): insoluble | Solubility in these solvents upon heating (upon heating in inert atmosphere, otherwise oxidation takes place): soluble in these solvents upon heating in inert atmosphere
